Data as given in paper PMC8837702 (Archives of toxicology, 2021).

Test system: CHO cells expressing human NAT1 and CYP1A1
Conditions: 0-150 μM for 24 hr

9,10-dihydro-9,10-dioxo-1,2-anthracenediyl diethyl ester [Compound 10]
ABP-induced DNA double strand breaks (then 800 μM ABP for 24 hr): concentration-dependent reductions
BNA-induced DNA double strand breaks (then 800 μM BNA for 24 hr): concentration-dependent reductions
